The chains behind the UniProt entries cited, without tags or fusion partners.
UniProt P60472, whole entry: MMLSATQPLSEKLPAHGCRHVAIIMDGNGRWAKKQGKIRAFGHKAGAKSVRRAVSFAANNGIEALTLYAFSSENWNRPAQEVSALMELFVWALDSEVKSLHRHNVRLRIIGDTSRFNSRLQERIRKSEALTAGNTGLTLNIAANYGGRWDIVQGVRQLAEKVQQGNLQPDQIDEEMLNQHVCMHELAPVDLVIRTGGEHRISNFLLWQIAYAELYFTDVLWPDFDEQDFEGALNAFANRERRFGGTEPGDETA

In patent EP2848693A1, “Concatenation of halogenated alkenyl diphosphate derivatives” (LANXESS Deutschland GmbH, priority 2013, dated 2015):

Target: E. coli Undecaprenyldiphosphatsynthase (EcUPPS) (Escherichia coli, UniProt P60472)
Test: MTP phosphate detection assay (diphosphate release, BIOMOL Green), substrate kinetics
Conditions: for rel. kcat Km^-1: relative to natural substrate FPP (100 %); for Km: starter substrate varied 80 - 0 µM, elongation substrate IPP constant 150 µM, 22°C; for kcat / vmax: starter substrate varied, IPP constant 150 µM

| SMILES | rel. kcat Km^-1 [%] | Km [µM] | kcat | vmax |
| --- | --- | --- | --- | --- |
| C/C(=C\COP(=O)(O)OP(=O)(O)O)CC/C=C(\C)CSc1ccccc1 | 89 | 2.1 | 0,5 s^-1 | 18,5 ± 0,7 nkat/mg |
| CC(C)=CCOC/C(C)=C/CC/C(C)=C/COP(=O)(O)OP(=O)(O)O | 2 | 32.1 | 0,2 s^-1 | 6,3 ± 0,3 nkat/mg |
| C/C(=C\COP(=O)(O)OP(=O)(O)O)CC/C=C(\C)CC(=O)c1sccc1C | 4 | 9.1 | 0,1 s^-1 | 3,5 ± 0,2 nkat/mg |
| C/C(=C\COP(=O)(O)OP(=O)(O)O)CC/C=C(\C)CC(=O)c1ccco1 | 9 | 38 | 1,0 s^-1 | 33,6 ± 2,1 nkat/mg |
| C#CCC/C(C)=C/CC/C(C)=C/COP(=O)(O)OP(=O)(O)O | 4 | 6.4 | 0,1 s^-1 | 2,9 ± 0,2 nkat/mg |
| CC(C)=CCC/C(C)=C/COC/C(C)=C/COP(=O)(O)OP(=O)(O)O | 6 | 4.8 | 0,1 s^-1 | 2,9 ± 0,2 nkat/mg |
| CC(=CCOP(=O)(O)OP(=O)(O)O)CCc1cccs1 | 8 | 11.6 | 0,3 s^-1 | 8,9 ± 0,6 nkat/mg |
| CC(C)=CCSC/C(C)=C/CC/C(C)=C/COP(=O)(O)OP(=O)(O)O | 22 | 5.1 | 0,3 s^-1 | 11,5 ± 0,5 nkat/mg |
| C/C(=C\COP(=O)(O)OP(=O)(O)O)CC/C=C(\C)CO[Si](C)(C)C(C)(C)C | 13 | 10.7 | 0,4 s^-1 | 14,4 ± 0,8 nkat/mg |
| C=CCC/C(C)=C/CC/C(C)=C/COP(=O)(O)OP(=O)(O)O | 60 | 2.5 | 0,4 s^-1 | 14,9 ± 0,2 nkat/mg |
| CC(C)=CCCC#CCC/C(C)=C/COP(=O)(O)OP(=O)(O)O | 33 | 4.2 | 0,4 s^-1 | 13,7 ± 0,3 nkat/mg |
| CC(=CCOP(=O)(O)OP(=O)(O)O)CCc1ccco1 | 34 | 1.8 | 0,2 s^-1 | 6,1 ± 0,2 nkat/mg |
| C/C(=C\COP(=O)(O)OP(=O)(O)O)CC/C=C(\C)CC(=O)c1cccs1 | 3 | 61.1 | 0,5 s^-1 | 18,1 ± 1,5 nkat/mg |
